Among the data in BindingDB's records for patent US8912213 (Purdue Research Foundation, 2014) are IC50 values, retold here.

Protein sequences, listed by entry. Tags and fused reporters are not part of them.
UniProt Q9NUW8, whole entry: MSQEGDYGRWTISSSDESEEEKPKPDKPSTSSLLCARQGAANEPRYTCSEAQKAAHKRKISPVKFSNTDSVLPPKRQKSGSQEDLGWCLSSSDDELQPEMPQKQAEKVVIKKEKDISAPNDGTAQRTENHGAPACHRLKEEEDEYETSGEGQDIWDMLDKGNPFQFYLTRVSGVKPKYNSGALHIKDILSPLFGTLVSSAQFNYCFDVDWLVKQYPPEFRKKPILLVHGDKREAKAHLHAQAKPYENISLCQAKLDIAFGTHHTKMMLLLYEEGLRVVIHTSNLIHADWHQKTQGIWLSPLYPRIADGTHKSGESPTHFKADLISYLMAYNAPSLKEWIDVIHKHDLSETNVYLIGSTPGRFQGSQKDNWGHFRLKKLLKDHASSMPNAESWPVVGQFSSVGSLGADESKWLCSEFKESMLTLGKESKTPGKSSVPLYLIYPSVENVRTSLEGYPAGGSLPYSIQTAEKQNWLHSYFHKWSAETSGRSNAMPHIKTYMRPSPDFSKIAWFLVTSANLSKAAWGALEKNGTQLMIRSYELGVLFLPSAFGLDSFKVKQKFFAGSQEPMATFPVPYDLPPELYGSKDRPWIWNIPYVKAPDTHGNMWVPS

As usually defined, the IC50 is the midpoint of a concentration-inhibition curve. Read a low IC50 as higher potency.

The target in the test is Tyrosyl-DNA phosphodiesterase 1 (Homo sapiens, UniProt Q9NUW8). The settings on record: pH 7.5.

For `O=C1c2ccccc2-c2c1c1ccccc1c(=O)n2CCCCCCO`, 45 µM corresponded to half-maximal inhibition (IC50).
The compound `O=C1c2ccccc2-c2c1c1ccccc1c(=O)n2CCCCCCCO` showed an IC50 of 18 µM.
